Only a part is listed here, and it is no random draw. Inconclusive results are not listed. Activity calls are given as the source filed them. The call rests on the fitted dose curve; in most records, active means well fitted cell-killing curve with a large enough effect in the repeat runs; inconclusive means weak or mixed curves, or effect the other way; inactive means flat fitted curve, though single readings scatter.
Assay: cAMP Responsive Elements (CRE) small molecule antagonists, cell-based qHTS assay: qHTS cell viability counter screen (AID 2060913); further: nearly all actives have a fitted effect of over 40% in size
Details: CRE-bla HEK293T viability, CellTiter-Glo luminescence, 5 h
Procedure, shortened: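 Cytotoxicity counter screen multiplexed with the CRE-bla antagonist read: HEK293T cells in DMEM with dialyzed FBS and 25 mM HEPES were treated 3 hrs under 0.25 uM final NKH477, then viability measured by CellTiter-Glo luminescence.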
On the % scale 0 is the no-effect control and ±100 the full control effect.

## OCCSCCO
At 42.5 µM (top of the series)
  viability change, negative = cytotoxic: inactive: 2.14%
At 92.4 µM (top of the series)
  viability change, negative = cytotoxic: inactive: -12.7%
